# Assay results taken from ChEMBL document CHEMBL3045895 (Med Chem Res, 2012).
# Assay: Selectivity ratio of IC50 for beta-glucuronidase (unknown origin) to IC50 for jack bean urease
structure (smiles),measurement,value
Cc1cc(C)n(CN(Cn2nc(C)cc2C)C2CCCCC2)n1,Ratio IC50,10
